Data taken from patent US12528818B2, “Compositions and methods for inhibition of RAS” (Leidos Biomedical Research, Inc., priority 2021, dated 2026).

What was measured:
[1] = target: T1, GTP-loaded KRAS4b (amino acids 1-169) G12C/C118S protein (Homo sapiens, UniProt P01116, C118S/G12C); test: Covalent cysteine 12 modification by MALDI-TOF MS, GTP-loaded KRAS G12C; type: biochemical; conditions: 15 minutes reaction time, compound 95 or later using 1 μM proteins
T1 construct: KRAS4b (amino acids 1-169) G12C/C118S protein; made in house

[2] = target: Avi-KRAS G12C (1-169) GppNHp/RAF1 RBD-3xFLAG (52-151) (Homo sapiens, UniProt P01116, G12C); test: biochemical; conditions: Raf1-GppNHp-KRAS G12C disruption, Raf1 RBD-KRAS G12C-GppNHp disruption assay IC50
[3] = target: GDP-loaded KRAS4b (amino acids 1-169) G12C/C118S protein (Homo sapiens, UniProt P01116, C118S/G12C); test: Covalent cysteine 12 modification by MALDI-TOF MS, GDP-loaded KRAS G12C; type: biochemical; conditions: 15 minutes reaction time, compound 95 or later using 1 μM proteins
[4] = target: GppNHp-loaded KRAS4b (amino acids 1-169) G12C/C118S protein (Homo sapiens, UniProt P01116, C118S/G12C); test: Covalent cysteine 12 modification by MALDI-TOF MS, GppNHp-loaded KRAS G12C; type: biochemical; conditions: 15 minutes reaction time, compound 95 or later using 1 μM proteins

Row | Structure (SMILES) | GTP-KRAS G12C percent of modification [1] | IC50 [2] | GDP-KRAS G12C percent of modification [3] | GppNHp-KRAS G12C percent of modification [4]
1 | C=CC(=O)N1C[C@@H](F)[C@@H](N(C)c2nc(OC[C@@H]3C[C@@H](F)CN3C)nc3cc(-c4ccc(F)c5sc(N)nc45)c(C(F)(F)F)cc23)C1 [Compound 355] | C (10%≤percent of modification <50%) | < 500 nM | A (percent of modification ≥70%) | B (50≤percent of modification <70%)
2 | C=CC(=O)N1C[C@H](C)N(c2nc(OC[C@@]34CCCN3C[C@H](F)C4)nc3c(F)c(-c4ccc(F)c5sc(N)c(C#N)c45)c(C(F)(F)F)cc23)C[C@H]1C (single isomer, unassigned) [Compound 314] | D (percent of modification <10%) | 5000 to 20000 nM | D (percent of modification <10%) | D (percent of modification <10%)
3 | C=CC(=O)N1CC[C@@H](N(C)c2nc(OC[C@@]34CCCN3C[C@H](F)C4)nc3c(Cl)c(-c4ccc(F)c5sc(N)nc45)c(C(F)(F)F)cc23)C1 (single isomer, unassigned) [Compound 303] | D (percent of modification <10%) | 5000 to 20000 nM | D (percent of modification <10%) | D (percent of modification <10%)
4 | C=CC(=O)N1C[C@@H](F)[C@@H](N(C)c2nc(OC[C@@]34CCCN3C[C@H](F)C4)nc3c(F)c(-c4ccc(F)c5sc(N)c(C#N)c45)c(C(F)(F)F)cc23)C1 [Compound 316] | A (percent of modification ≥70%) | < 500 nM | A (percent of modification ≥70%) | A (percent of modification ≥70%)
5 | C=CC(=O)N1C[C@H](F)[C@@H](N(C)c2nc(OC[C@@]34CCCN3C[C@H](F)C4)nc3c(F)c(-c4ccc(F)c5sc(N)c(C#N)c45)c(C(F)(F)F)cc23)C1 [Compound 327] | A (percent of modification ≥70%) | < 500 nM | A (percent of modification ≥70%) | A (percent of modification ≥70%)
6 | C=CC(=O)N1CCN(c2nc(OC[C@@]34CCCN3C[C@H](F)C4)nc3c(F)c(-c4ccc(F)c5sc(N)c(C#N)c45)c(C(F)(F)F)cc23)CC12CC2 [Compound 322] | C (10%≤percent of modification <50%) | < 500 nM | B (50≤percent of modification <70%) | C (10%≤percent of modification <50%)
7 | C=CC(=O)N1C[C@H](C)N(c2nc(OCC34CCCN3CCC4)nc3c(F)c(-c4ccc(F)c5sc(N)c(C#N)c45)c(C(F)(F)F)cc23)C[C@H]1C [Compound 346] | A (percent of modification ≥70%) | < 500 nM | A (percent of modification ≥70%) | A (percent of modification ≥70%)
8 | C=CC(=O)N1C[C@H](N(C)c2nc(OC[C@@]34CCCN3C[C@H](F)C4)nc3cc(-c4ccc(F)c5sc(N)nc45)c(C(F)(F)F)cc23)C[C@H]1C [Compound 309] | B (50≤percent of modification <70%) | < 500 nM | A (percent of modification ≥70%) | A (percent of modification ≥70%)
9 | C=CC(=O)N1CC[C@@H](N(C)c2nc(OC[C@@]34CCCN3C[C@H](F)C4)nc3c(F)c(-c4ccc(F)c5sc(N)nc45)c(C(F)(F)F)cc23)C1 [Compound 198] | A (percent of modification ≥70%) | < 500 nM | A (percent of modification ≥70%) | A (percent of modification ≥70%)
10 | C=CC(=O)N1C[C@H](C)N(c2nc(OC[C@@]34CCCN3C[C@H](F)C4)nc3c(F)c(-c4ccc(F)c5sc(N)nc45)c(C(F)(F)F)cc23)C[C@H]1C (atropisomer, axis not shown) [Compound 268] | D (percent of modification <10%) | 500 to 5000 nM | D (percent of modification <10%) | D (percent of modification <10%)
11 | C=CC(=O)N1C[C@H](C)N(c2nc(OC[C@@]34CCCN3C[C@H](F)C4)nc3c(F)c(-c4ccc(F)c5sc(N)c(C#N)c45)c(C(F)(F)F)cc23)C[C@H]1C (single isomer, unassigned) [Compound 313] | A (percent of modification ≥70%) | < 500 nM | A (percent of modification ≥70%) | A (percent of modification ≥70%)
12 | C=CC(=O)N1C[C@H](N(C)c2nc(OC[C@@]34CCCN3C[C@H](F)C4)nc3c(F)c(-c4ccc(F)c5sc(N)nc45)c(C(F)(F)F)cc23)C(C)(C)C1 [Compound 301] | D (percent of modification <10%) | 500 to 5000 nM | A (percent of modification ≥70%) | C (10%≤percent of modification <50%)
13 | C=CC(=O)N1CC[C@@H](N(C)c2nc(OC[C@@]34CCCN3C[C@H](F)C4)nc3c(F)c(-c4ccc(F)c5sc(N)nc45)c(C#N)cc23)[C@H]1C [Compound 373] | A (percent of modification ≥70%) | < 500 nM | A (percent of modification ≥70%) | A (percent of modification ≥70%)

Second part, the compound after the results:

Row | GTP-KRAS G12C percent of modification [1] | IC50 [2] | GDP-KRAS G12C percent of modification [3] | GppNHp-KRAS G12C percent of modification [4] | Structure (SMILES)
14 | A (percent of modification ≥70%) | < 500 nM | A (percent of modification ≥70%) | A (percent of modification ≥70%) | C=CC(=O)N1CCC(N(C)c2nc(OC[C@@]34CCCN3C[C@H](F)C4)nc3cc(-c4ccc(F)c5sc(N)c(C#N)c45)c(C#N)cc23)[C@H]1C (stereo partly drawn) [Compound 387, 4-((1-acryloyl-2-methylpyrrolidin-3-yl)(methyl)amino)-7-(2-amino-3-cyano-7-fluorobenzo[b]thiophen-4-yl)-2-(((2R,7aS)-2-fluorotetrahydro-1H-pyrrolizin-7a(5H)-yl)methoxy)quinazoline-6-carbonitrile]
15 | C (10%≤percent of modification <50%) | < 500 nM | A (percent of modification ≥70%) | C (10%≤percent of modification <50%) | C=CC(=O)N1CC[C@@H](N(C)c2ncnc3c(F)c(-c4ccc(F)c5sc(N)c(C#N)c45)c(C(F)(F)F)cc23)C1 [Compound 383, 4-(4-(((R)-1-acryloylpyrrolidin-3-yl)(methyl)amino)-8-fluoro-6-(trifluoromethyl)quinazolin-7-yl)-2-amino-7-fluorobenzo[b]thiophene-3-carbonitrile]
16 | B (50≤percent of modification <70%) | < 500 nM | A (percent of modification ≥70%) | A (percent of modification ≥70%) | C=CC(=O)N1C[C@@H](F)[C@@H](N(CC)c2nc(OC[C@@]34CCCN3C[C@H](F)C4)nc3cc(-c4ccc(F)c5sc(N)c(C#N)c45)c(C#N)cc23)C1 [Compound 386]
17 | C (10%≤percent of modification <50%) | < 500 nM | B (50≤percent of modification <70%) | C (10%≤percent of modification <50%) | C=CC(=O)N1C[C@H](C)N(c2nc(OC[C@@H]3C[C@@H](OC)CN3C)nc3c(F)c(-c4ccc(F)c5sc(N)c(C#N)c45)c(C(F)(F)F)cc23)C[C@H]1C [Compound 408]
18 | C (10%≤percent of modification <50%) | < 500 nM | C (10%≤percent of modification <50%) | C (10%≤percent of modification <50%) | C=CC(=O)N1CCC(N(CC)c2nc(OC[C@@H]3C[C@@H](F)CN3C)nc3c(F)c(-c4ccc(F)c5sc(N)c(C#N)c45)c(C(F)(F)F)cc23)[C@H]1COC (stereo partly shown) [Compound 453]
19 | C (10%≤percent of modification <50%) | < 500 nM | B (50≤percent of modification <70%) | C (10%≤percent of modification <50%) | C=CC(=O)N1CCC(N(C)c2nc(OC[C@@H]3C[C@@H](F)CN3C)nc3c(F)c(-c4ccc(F)c5sc(N)c(C#N)c45)c(C(F)(F)F)cc23)[C@H]1COC (stereo partly shown) [Compound 443]
